Target: Serotonin (5-HT) uptake (Rattus norvegicus (Rat), UniProt P31652)
Assay: Serotonin (5-HT) uptake inhibitory activity by rat brain synaptosome
Type: biochemical
Conditions: test compound 300 nM, rat frontal cortex synaptosome

The chains behind the UniProt entries cited, without tags or fusion partners.
UniProt P31652, whole entry: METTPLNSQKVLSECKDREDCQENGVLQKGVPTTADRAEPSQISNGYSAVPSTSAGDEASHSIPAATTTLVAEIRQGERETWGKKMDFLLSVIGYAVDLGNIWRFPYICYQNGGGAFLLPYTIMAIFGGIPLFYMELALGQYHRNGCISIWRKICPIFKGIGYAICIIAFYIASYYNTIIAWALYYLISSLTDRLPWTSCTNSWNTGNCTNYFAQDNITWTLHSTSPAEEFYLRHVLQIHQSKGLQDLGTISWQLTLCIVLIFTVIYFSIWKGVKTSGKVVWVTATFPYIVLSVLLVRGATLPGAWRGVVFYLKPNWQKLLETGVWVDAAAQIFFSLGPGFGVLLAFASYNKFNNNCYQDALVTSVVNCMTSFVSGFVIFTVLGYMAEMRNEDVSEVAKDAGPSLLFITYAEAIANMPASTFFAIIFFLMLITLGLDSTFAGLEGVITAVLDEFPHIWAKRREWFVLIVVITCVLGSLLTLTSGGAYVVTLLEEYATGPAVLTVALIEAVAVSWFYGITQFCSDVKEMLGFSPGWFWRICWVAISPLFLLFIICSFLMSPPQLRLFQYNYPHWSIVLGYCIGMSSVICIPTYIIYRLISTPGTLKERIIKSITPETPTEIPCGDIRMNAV

Structure (SMILES): CC1CN(CCCOc2ccc3c(c2)NC(=O)CC3)CCN1c1cccc2sccc12 (stereo not drawn)
- Serotonin uptake inhibitory ratio (%) (300 nM): 73.0%

Structure (SMILES): CC1CN(c2cccc3sccc23)CCN1CCCCOc1ccc2ccc(=O)[nH]c2c1 (stereo not drawn)
- Serotonin uptake inhibitory ratio (%) (300 nM) (tested form: hydrochloride): 96.3%

Structure (SMILES): CC1CN(c2cccc3sccc23)CCN1CCCCOc1ccc2c(c1)NC(=O)CC2 (stereo not drawn)
- Serotonin uptake inhibitory ratio (%) (300 nM) (tested form: dihydrochloride): 95.7%

From patent publication US9206167B2, “Piperazine-substituted benzothiophenes for treatment of mental disorders” (Otsuka Pharmaceutical Co., Ltd., priority 2005, dated 2015)
